PMC9814792, “A platinum(IV) prodrug strategy to overcome glutathione-based oxaliplatin resistance” (Communications Chemistry, 2022)

Tested on: HCT116/OxR cells
Assay: 72 h cell viability (MTT) assay
Format: cell-based, human
Conditions: IC50 HCT116/OxR divided by IC50 HCT116
Method: Absorbance was measured at 450 nm (at 620 nm as reference) using the multimode plate reader Tecan Infinite 200 Pro (Zurich, Switzerland). Cytotoxicity was expressed as IC50 values calculated from full dose-response curves using the 4 parameter nonlinear regression model of GraphPad Prism 8 software (La Jolla, CA, USA).

`O=C1[O][Pt]2([NH][C@@H]3CCCC[C@H]3[NH]2)[O]C1=O` [oxaliplatin] showed a resistance factor greater than 17.2.
